Biological target: T1, 64 kDa MMP-2 (Homo sapiens, UniProt P08253)
T1 sequence (P08253 110-660): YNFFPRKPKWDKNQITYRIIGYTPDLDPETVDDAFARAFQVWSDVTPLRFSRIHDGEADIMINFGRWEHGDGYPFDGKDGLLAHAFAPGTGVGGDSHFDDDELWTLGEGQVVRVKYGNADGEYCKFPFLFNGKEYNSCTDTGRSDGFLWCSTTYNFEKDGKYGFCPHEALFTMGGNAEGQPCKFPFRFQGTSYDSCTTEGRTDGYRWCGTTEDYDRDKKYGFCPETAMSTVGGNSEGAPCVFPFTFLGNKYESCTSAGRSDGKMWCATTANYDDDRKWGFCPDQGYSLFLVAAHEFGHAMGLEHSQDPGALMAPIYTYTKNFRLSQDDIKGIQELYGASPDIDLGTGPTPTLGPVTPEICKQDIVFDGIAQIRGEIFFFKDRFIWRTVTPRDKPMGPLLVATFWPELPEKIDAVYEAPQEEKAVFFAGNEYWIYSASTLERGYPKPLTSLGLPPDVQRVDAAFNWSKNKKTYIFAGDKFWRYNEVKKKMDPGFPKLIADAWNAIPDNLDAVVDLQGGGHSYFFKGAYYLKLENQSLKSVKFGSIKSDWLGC
Assay: OmniMMP fluorogenic substrate kinetic assay of MMP-2 activity
Type: biochemical

With c1cnc2c(c1)ccc1cccnc12 [o-Phenanthroline, o-phenanthroline] the “decrease in potency at 10 µM ZnSO4 compared to potency at 1 nM ZnSO4” value (10 µM vs 1 nM ZnSO4) was 2.5 fold and the IC50 (IC50 ± SD) was 293 ± 14 µM.
